In this test the target is RBBP4, recombinant, for fluorescence polarization (human), Q09028. Description: fluorescence polarisation; competitive: unlabeled peptide (1.0–0.0 mM series) added to preformed complex of 1 nM FAM tracer and 40 nM RBBP4; 50 mM Tris-HCl pH 7.5, 150 mM NaCl, 0.02% Triton X-100; read after 60 min; ki from IC50.

By UniProt entry, the sequences of proteins in these tests, tags left out.
RBBP4, recombinant, for fluorescence polarization (human), Q09028, UniProt Q09028, whole entry: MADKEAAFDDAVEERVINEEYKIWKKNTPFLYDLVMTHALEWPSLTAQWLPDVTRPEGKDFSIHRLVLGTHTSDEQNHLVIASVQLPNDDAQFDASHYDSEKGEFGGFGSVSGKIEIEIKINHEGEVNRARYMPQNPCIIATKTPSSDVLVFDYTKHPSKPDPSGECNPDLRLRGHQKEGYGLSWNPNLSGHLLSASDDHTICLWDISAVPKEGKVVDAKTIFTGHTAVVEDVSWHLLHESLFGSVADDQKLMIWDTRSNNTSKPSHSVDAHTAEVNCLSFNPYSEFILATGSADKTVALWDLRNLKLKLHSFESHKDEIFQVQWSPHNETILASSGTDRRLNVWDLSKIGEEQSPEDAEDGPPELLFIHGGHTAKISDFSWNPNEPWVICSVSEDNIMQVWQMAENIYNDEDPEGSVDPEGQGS

With MSRRKQSNPRQI (modifications not checked) [FOG-1 NIM peptide], the Ki was 1200 nM.
